According to patent US5990277A, “Semipeptoid farnesyl protein transferase inhibitors and analogs thereof” (Yissum Research Development Company of the Herbrew …, priority 1996, dated 1999):

System: v-Ha-ras transformed NIH3T3 cells

## methyl ester Derivative of cysteinyl-(Nα-methyl)valyl-(Nα-cyclohexyl)glycyl-methionine [Semipeptoid 12]
  lack of toxic effects up to: up to 250 mM
